Measured values as given in patent US20120107317A1 (UNIVERSITY OF HONG KONG, published 2012).

Amino acid sequences for entries named in this document (tags omitted).
UniProt P51617, whole entry: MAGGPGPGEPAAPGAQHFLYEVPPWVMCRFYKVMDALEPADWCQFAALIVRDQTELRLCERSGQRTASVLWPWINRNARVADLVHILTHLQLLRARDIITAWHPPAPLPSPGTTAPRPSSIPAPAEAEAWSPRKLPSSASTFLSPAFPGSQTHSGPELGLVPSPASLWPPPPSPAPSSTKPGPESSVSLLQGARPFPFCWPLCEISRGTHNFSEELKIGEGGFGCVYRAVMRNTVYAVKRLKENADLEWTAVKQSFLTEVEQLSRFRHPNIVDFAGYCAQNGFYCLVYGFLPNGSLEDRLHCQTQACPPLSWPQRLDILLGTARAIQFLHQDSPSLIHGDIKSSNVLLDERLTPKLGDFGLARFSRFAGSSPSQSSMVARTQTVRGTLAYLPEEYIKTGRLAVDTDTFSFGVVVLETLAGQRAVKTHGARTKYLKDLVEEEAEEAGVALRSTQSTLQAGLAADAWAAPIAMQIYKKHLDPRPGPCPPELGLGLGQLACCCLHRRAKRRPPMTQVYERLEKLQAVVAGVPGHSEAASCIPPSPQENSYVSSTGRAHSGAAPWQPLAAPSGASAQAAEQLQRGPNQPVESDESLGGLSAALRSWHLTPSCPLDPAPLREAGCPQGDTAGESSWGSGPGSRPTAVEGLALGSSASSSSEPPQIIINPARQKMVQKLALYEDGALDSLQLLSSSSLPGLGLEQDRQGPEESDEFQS

Biological target: T1, IRAK1 (endogenous protein of primary human blood macrophages) (human, UniProt P51617)
T1 construct: Endogenous protein in PBMac lysates
Assay: co-immunoprecipitation with anti-c-Myc antibody from PBMac lysates, Western blot
Protocol: Total proteins (200 μg) were extracted from PBMac by IP buffer (10 mM Tris [pH7.4], 1 mM EDTA, 1 mM EGTA, 150 mM NaCl, 0.5% NP-40, 1% Triton X-100, inhibitor cocktails of proteases and phosphatases), and were incubated with 1μg primary antibodies against IκBα(Santa Cruz Biotechnology, USA) or c-Myc (Millipore, USA) for 2 hours at 4° C. and then with 20 μl Protein A/G agarose beads (Santa Cruz Biotechnology, USA) for 1 hour at 4° C. The immunoprecipitates were then washed 6 times with IP buffer. Cytoplasmic and nuclear proteins were extracted from PBMac as previously described (Cheung et al., 2005; Lee et al., 2005). Immunoprecipitated, cytoplasmic (50 μg) or nuclear proteins (10 μg) were analyzed by Western Blot as in our previous reports (Cheung et al., 2005; Lee et al., 2005).

B1: c-Myc (endogenous protein of primary human blood macrophages) (other)
chain: MPLNVSFTNRNYDLDYDSVQPYFYCDEEENFYQQQQQSELQPPAPSEDIWKKFELLPTPPLSPSRRSGLCSPSYVAVTPFSLRGDNDGGGGSFSTADQLEMVTELLGGDMVNQSFICDPDDETFIKNIIIQDCMWSGFSAAAKLVSEKLASYQAARKDSGSPNPARGHSVCSTSSLYLQDLSAAASECIDPSVVFPYPLNDSSSPKSCASQDSSAFSPSSDSLLSSTESSPQGSPEPLVLHEETPPTTSSDSEEEQEDEEEIDVVSVEKRQAPGKRSESGSPSAGGHSKPPHSPLVLKRCHVSTHQHNYAAPPSTRKDYPAAKRVKLDSVRVLRQISNNRKCTSPRSSDTEENVKRRTHNVLERQRRNELKRSFFALRDQIPELENNEKAPKVVILKKATAYILSVQAEEQKLISEEDLLRKRREQLKHKLEQLRNSCA
notes: Endogenous c-Myc in lysates of primary human blood macrophages (PBMac), with or without BCG treatment; also called cytoplasmic c-Myc
  binding result: no binding
